From PubChem BioAssay AID892 (National Center for Advancing Translational Sciences (NCATS), 2007)
The entries are a selection whose mix differs from that of the whole data set. Calls of active or inactive are those of the source. Calls follow the shape of the dose curve; as a rule, active = well fitted inhibition curve with a large enough effect; inconclusive = small, poorly fitted or top-dose-only effect; inactive = no such curve, though single readings can be large or run the other way.

Chains of the proteins cited; added tags and fusions are not shown.
UniProt P38398, whole entry: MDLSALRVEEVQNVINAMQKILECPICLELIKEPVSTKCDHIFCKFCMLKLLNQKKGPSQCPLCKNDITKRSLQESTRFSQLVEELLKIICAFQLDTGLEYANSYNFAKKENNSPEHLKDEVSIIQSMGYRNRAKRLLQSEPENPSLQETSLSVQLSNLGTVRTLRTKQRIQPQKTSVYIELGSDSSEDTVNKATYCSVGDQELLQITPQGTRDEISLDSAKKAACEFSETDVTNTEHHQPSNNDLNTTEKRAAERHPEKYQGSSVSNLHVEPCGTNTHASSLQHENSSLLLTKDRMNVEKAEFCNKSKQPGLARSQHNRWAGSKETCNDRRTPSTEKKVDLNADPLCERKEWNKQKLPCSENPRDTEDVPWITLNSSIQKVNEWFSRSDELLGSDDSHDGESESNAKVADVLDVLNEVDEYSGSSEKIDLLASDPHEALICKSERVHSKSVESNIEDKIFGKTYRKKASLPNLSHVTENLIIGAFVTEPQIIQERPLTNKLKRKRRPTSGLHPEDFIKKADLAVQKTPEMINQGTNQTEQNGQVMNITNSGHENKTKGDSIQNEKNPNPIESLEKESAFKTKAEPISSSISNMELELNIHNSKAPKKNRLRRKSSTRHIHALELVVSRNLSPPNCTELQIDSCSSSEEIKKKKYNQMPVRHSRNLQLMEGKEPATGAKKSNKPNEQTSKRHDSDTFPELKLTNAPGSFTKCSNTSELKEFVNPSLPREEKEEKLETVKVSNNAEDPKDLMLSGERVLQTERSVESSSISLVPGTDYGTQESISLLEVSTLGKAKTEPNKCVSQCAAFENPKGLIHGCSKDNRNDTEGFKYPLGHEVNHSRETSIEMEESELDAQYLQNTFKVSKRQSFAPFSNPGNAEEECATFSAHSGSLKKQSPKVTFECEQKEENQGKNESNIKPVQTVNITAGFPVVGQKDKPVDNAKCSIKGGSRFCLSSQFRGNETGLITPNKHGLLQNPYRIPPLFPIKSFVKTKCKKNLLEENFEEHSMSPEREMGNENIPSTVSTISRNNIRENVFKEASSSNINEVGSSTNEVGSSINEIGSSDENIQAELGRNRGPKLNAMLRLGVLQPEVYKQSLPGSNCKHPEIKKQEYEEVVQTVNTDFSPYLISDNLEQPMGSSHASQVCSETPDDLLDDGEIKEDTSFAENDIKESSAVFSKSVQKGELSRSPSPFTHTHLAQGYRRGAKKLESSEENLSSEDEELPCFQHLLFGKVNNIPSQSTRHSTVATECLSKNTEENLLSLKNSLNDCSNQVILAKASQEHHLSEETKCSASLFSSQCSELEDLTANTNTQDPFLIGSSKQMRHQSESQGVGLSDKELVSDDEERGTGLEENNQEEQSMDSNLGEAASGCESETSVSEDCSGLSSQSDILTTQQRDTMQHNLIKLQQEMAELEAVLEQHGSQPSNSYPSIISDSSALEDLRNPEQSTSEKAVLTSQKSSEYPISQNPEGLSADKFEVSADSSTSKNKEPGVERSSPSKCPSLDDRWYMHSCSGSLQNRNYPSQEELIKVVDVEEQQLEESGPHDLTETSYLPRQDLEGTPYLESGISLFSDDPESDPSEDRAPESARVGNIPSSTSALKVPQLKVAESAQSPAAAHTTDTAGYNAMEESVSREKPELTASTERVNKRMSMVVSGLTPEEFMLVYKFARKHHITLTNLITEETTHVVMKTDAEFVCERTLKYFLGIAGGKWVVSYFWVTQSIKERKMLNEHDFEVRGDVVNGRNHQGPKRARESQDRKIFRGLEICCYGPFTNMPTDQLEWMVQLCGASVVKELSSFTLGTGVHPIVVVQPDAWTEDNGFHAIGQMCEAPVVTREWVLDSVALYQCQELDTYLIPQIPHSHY

What follows are molecules tested against Breast cancer type 1 susceptibility protein (Homo sapiens) (UniProt P38398) (assay: qHTS Assay for Inhibitors of BRCT-Phosphoprotein Interaction (Red Fluorophore)). Settings: BRCT-phosphopeptide binding, red fluorescence polarization; at 76.9 µM (top of the series).
Experimental: NIH Molecular Libraries Screening Centers Network [MLSCN]
NIH Chemical Genomics Center [NCGC]
PI Name: Natarajan, Amarnath; University of Texas
A complex of BRCT (C-terminal portion of BRCA1, MW ~35 kDa, His-tagged) and fluorescently labeled pBACH1 phosphorylated 10 aa peptide fragment of BACH1, a helicase implicated in DNA repair, is incubated with library members. Inhibitors of BRCT-pBACH1 binding are detected by a decrease in the fluorescence polarization (FP) of the fluorophore. In order to minimize the effect of fluorescence artifacts and to increase the overall robustness of the screen, the compound library members were incubated in separate reactions with rhodamine-labeled probe-protein complexes. Protein and labeled probes were supplied by Dr. Amarnath Natarajan, Department of Pharmacology and Toxicology, University of Texas Medical Branch Galveston, TX.
Assay Buffer: 16mM Na2HPO4, 4 mM NaH2PO4, 150 mM NaCl, 1 mM EDTA, 1 mM DTT, 0.02% NaN3, and 0.01% Tween 20 at pH 7.3. […]
Three uL of reagents were dispensed to 1536-well Greiner black solid-bottom plates. […] The plates were incubated for 12 min at room temperature, and then read on ViewLux (Perkin-Elmer) High-throughput CCD imager using BODIPY for the rhodamine-labeled decapeptide probe polarization filter sets. […]
% is scaled to controls: 0 for no effect and ±100 for the full control effect.

SMILES	activity change, negative = inhibition
O=[N+]([O-])C(Cl)(Cl)Cl	inactive: -1.77%
CN(CCCl)CCCl	inactive: -3.46%
